The source of these data is US20250034147A1, “MDM2 DEGRADERS AND USES THEREOF” (Kymera Therapeutics, Inc., priority 2021, published 2025).

The chains behind the UniProt entries cited, without tags or fusion partners.
UniProt Q00987, whole entry: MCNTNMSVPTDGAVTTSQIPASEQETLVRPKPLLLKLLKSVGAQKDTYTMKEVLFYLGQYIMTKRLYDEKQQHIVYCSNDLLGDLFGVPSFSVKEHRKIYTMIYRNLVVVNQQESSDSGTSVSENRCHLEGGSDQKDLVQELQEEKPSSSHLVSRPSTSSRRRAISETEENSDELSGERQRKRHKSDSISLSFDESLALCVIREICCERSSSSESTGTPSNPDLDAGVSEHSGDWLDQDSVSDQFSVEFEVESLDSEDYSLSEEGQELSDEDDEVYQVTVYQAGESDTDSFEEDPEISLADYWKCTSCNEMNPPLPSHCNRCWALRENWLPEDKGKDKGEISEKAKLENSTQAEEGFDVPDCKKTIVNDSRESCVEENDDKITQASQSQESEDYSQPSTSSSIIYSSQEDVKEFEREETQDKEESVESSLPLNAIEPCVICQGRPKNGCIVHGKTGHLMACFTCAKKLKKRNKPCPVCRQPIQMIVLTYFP

In assay [1] the test system is RS411 cells. Nature of the assay: Cell Viability CTG Assay. Particulars: read-out: Average external-IC50, CellTiter Glo (CTG) cell viability. On the procedure:
Compounds or DMSO 60 nL were stamped to the cell plate as the platemap. RS411 cells were centrifuged at 800 rpm for 5 min, suspended with culture medium, and counted with Countess (Invitrogen). The cell density was adjusted to the recommend information. 30 μL of cell solution (1000 cells/well) was added to the assay plate as the platemap and 30 μL of media was added to column 2 and column 23 as the platemap. The plate was spun down briefly. The final concentration of the compounds started at 10 μM (3 fold dilution and 11 doses) and final DMSO concentration was 0.2%. The plate was spun down briefly and incubated at 37° C., 5% CO2 for 1 day. […] 30 μL CellTiter Glo reagent was added to each well and the plate was centrifuged at 1000 rpm for 30 sec. The plate was shaken for 1 min and centrifuged at 1000 rpm for 30 sec. The plate was incubated at RT for 10 min to stabilize the luminescent signal and the luminescence was read by EnVision.
The letter codes for IC50 indicate the concentration of compound required to affect 50% of cells: A (<0.005 μM), B (0.005-0.05 μM), C (0.05-0.5 μM), and D (>0.5 μM).
On the technique in general: ATP-based viability assays read luminescence as a measure of living cells.

The target in assay [2] is HiBiT-tagged MDM2 (Homo sapiens, UniProt Q00987). Kind of assay: MDM2 HiBit HEK293T degradation. Particulars: read-out: MDM2 HiBit HEK293T degradation 4 h: Average external-Abs DC50, HEK293T cells stably expressing C-terminally HiBiT-tagged MDM2. On the procedure:
HEK293T cells were grown overnight to 70-80% confluency in a 6-well plate in complete media (DMEM 10% FBS) in a 37° C. incubator with 5% CO2. Cells were transfected with 1 micrograms of C- or N-terminally HiBiT-tagged MDM2 constructs using Fugene 6 transfection reagent (Promega) as per manufacturer protocol. After overnight incubation at 37° C., growth media within the wells was replaced with selection media (DMEM+10% FBS+1 microgram/ml final concentration of Puromycin). Puromycin (selection antibiotic) concentrations required for complete cell kill were determined previously. Cells were monitored for the next 48h-96h to select for positively transfected cells. Surviving colonies were pooled and expanded in selection media. Expanded pools of HEK293T cells stably expressing C- and N-terminally HiBiT-tagged MDM2, were characterized using a MDM2 tool degrader and HaloPROTAC3 as positive control. HEK293T cells expressing C-terminally HiBiT-tagged MDM2 were subsequently used for assessment of degradation potencies for MDM2 degraders.
The letter codes for MDM2 degradation potency (DC50) include: A (<10 nM), B […], C (>100-1000 nM), and D (>1000 nM).

Regarding `CN1[C@@H](C(=O)N[C@H]2CC[C@H](C(=O)N3CCN(CCc4ccc5c(c4)n(C)c(=O)n5C4CCC(=O)NC4=O)CC3)CC2)[C@H](c2cccc(Cl)c2F)[C@]2(C(=O)Nc3cc(Cl)ccc32)C12CCCCC2` (stereo partly drawn), in assay [1], the half-maximal inhibitory concentration (IC50) (as a rule, the midpoint of a concentration-inhibition curve) was below 5 nM. For the same compound, in assay [2], the DC50 (in general, the concentration giving 50% degradation) was below 10 nM.

Turning to `CN1C(=O)CCC(n2c(=O)n(C)c3cc(C4CCN(C(=O)[C@H]5CC[C@H](NC(=O)[C@@H]6NC7(CCCCC7)[C@@]7(C(=O)Nc8cc(Cl)ccc87)[C@H]6c6cccc(Cl)c6F)CC5)CC4)ccc32)C1=O` (stereo partly drawn), the half-maximal degradation concentration (DC50) in assay [2] is above 1000 nM.

As to `Cn1c(=O)n(C2CCC(=O)NC2=O)c2ccc(CCCC3(C(=O)O)CCN(C(=O)[C@H]4CC[C@H](NC(=O)[C@@H]5NC6(CCCCC6)[C@@]6(C(=O)Nc7cc(Cl)ccc76)[C@H]5c5cccc(Cl)c5F)CC4)CC3)cc21` (stereo partly drawn), the IC50 in assay [1] lay in the range of 5 to 50 nM. In addition, the DC50 in assay [2] is 10 to 100 nM.

On to `Cn1c(=O)n(C2CCC(=O)NC2=O)c2ccc(C3CCN(CCN4CC(NC(=O)[C@@H]5NC6(CCCCC6)[C@@]6(C(=O)Nc7cc(Cl)ccc76)[C@H]5c5cccc(Cl)c5F)C4)CC3)cc21` (stereo partly drawn), for which, in assay [2], the 50% degradation concentration (DC50) is below 10 nM.

Take `Cn1c(=O)n(C2CCC(=O)NC2=O)c2ccc(C3CCN(C[C@]4(O)CC[C@@H](NC(=O)[C@@H]5NC6(CCCCC6)[C@@]6(C(=O)Nc7cc(Cl)ccc76)[C@H]5c5cccc(Cl)c5F)CC4)CC3)cc21` (stereo partly drawn): the half-maximal inhibitory concentration (IC50) in assay [1] was below 5 nM. In addition, the 50% degradation concentration (DC50) in assay [2] is below 10 nM.

In the case of `Cn1c(=O)n(C2CCC(=O)NC2=O)c2ccc(CCN3CCN(C[C@H]4CC[C@H](NC(=O)[C@@H]5NC6(CCCCC6)[C@@]6(C(=O)Nc7cc(Cl)ccc76)[C@H]5c5cccc(Cl)c5F)CC4)[C@H](C(=O)O)C3)cc21` (stereo partly drawn), the DC50 in assay [2] was below 10 nM.
